For the experiment, the target named is T1, CRHR1 (Homo sapiens, UniProt P34998).
T1 sequence (P34998 24-415): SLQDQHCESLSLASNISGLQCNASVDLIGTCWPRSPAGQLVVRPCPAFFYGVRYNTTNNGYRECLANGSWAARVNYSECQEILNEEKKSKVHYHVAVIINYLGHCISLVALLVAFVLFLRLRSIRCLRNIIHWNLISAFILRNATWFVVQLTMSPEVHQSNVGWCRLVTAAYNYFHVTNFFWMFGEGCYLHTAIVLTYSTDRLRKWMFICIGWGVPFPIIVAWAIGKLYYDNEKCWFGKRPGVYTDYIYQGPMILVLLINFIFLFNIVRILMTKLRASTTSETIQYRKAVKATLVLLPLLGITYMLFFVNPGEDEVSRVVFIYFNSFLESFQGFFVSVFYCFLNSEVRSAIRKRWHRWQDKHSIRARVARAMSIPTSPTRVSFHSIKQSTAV
Put plainly: cAMP assay, h-CRHR1 transfected SK-N-MC cells. It counts as cell-based. Further details: expressed in transfected cells. The following applies: Table 11; for EC50: h-CRHR1 transfected SK-N-MC cells, 1 hr at 37° Celsius, read-out: pA50 (Experimental) (converted). As to the method: The concentration required for 50% maximum effect (A50) was 0.4 nM.
Human CRHR1 (accession number X72304) or CRHR2 (accession number U34587) were cloned into pcDNA3.1/Zeo expression vector and stably transfected into SK—N-MC cells by electroporation. Cells were maintained in MEM w/Earl's Salt with 10% FBS, 50 I.U. penicillin, 50 μg/ml streptomycin, 2 mM L-glutamine, 1 mM sodium pyruvate and 0.1 mM non-essential amino acids, 600 μg/ml G418. Cells were grown at 37° C. in 5% CO2
Cells were plated in 96-well tissue culture dishes (Biocoat from BD Biosciences) overnight at 50,000 cell/well. Cells were washed with PBS then resuspended in DMEM F-12 without phenol red, containing 10 μM isobutylmethylxanthine (IBMX). Cells were incubated with the peptides at concentrations ranging from 1 pM to 10 μM for 60 min at 37° Celsius. […] Forskolin (10 μM), a direct stimulant of adenylate cyclase, was used as positive control. The assays were stopped by the addition of 0.5 M HCl and mixing by orbital rotation for 2 h at 4° Celsius. […]
Media containing released intracellular cAMP was transferred to a 96-well flash plate coated with scintillant fluid containing an anti-cAMP antibody. […] [^125I]-cAMP was measured on a TopCount scintillation counter (Perkin Elmer, Mass., U.S.A).
Individual agonist concentration-response curve data were fitted to the Hill equation, see formula below, using GraphPad Prism (Graphpad Software, La Jolla, Calif., U.S.A.), to provide estimates of agonist concentration needed to generate one-half maximal response (A50), and the maximal asymptote (α) and Hill slope (nH) parameters. In this equation, [A] is the agonist concentration and E is the measured effect:
For display purposes the mean fitted parameter estimates were used to generate a single E/[A] curve shown superimposed on the mean experimental data. Potency estimates for agonists, pA50, are expressed as the negative logarithm of the midpoint of each curve and listed with their standard error of measurement (SEM). […]
A general note: Cyclic AMP is a second messenger, typically raised through Gs and lowered through Gi signalling.

Structures are written as SMILES. Bounds are passed on as bounds.

Turning to `CC[C@H](C)[C@H](NC(=O)[C@H](CCC(N)=O)NC(=O)[C@H](C)NC(=O)[C@H](CCSC)NC(=O)[C@H](CC(C)C)NC(=O)[C@H](Cc1c[nH]cn1)NC(=O)[C@H](C)NC(=O)[C@H](CC(N)=O)NC(=O)[C@H](C)NC(=O)[C@H](C)NC(=O)[C@H](C)NC(=O)[C@H](CCC(N)=O)NC(=O)[C@H](C)NC(=O)[C@H](CCCNC(=N)N)NC(=O)[C@H](CC(C)C)NC(=O)[C@H](CC(N)=O)NC(=O)[C@H](CCCCN)NC(=O)[C@H](C)NC(=O)[C@H](CCCCN)NC(=O)[C@H](C)NC(=O)[C@@H](NC(=O)[C@H](CC(N)=O)NC(=O)[C@H](Cc1ccccc1)NC(=O)[C@H](CC(C)C)NC(=O)[C@H](CC(C)C)NC(=O)[C@H](CC(N)=O)NC(=O)[C@H](CCSC)NC(=O)[C@@H](NC(=O)[C@H](CC(N)=O)NC(=O)[C@@H](NC(=O)[C@@H]1CCCN1C(=O)[C@@H](NC(=O)[C@H](CC(=O)O)NC(=O)[C@H](CC(C)C)NC(=O)[C@H](CO)NC(=O)[C@H](CC(C)C)NC(=O)[C@@H](NC(=O)[C@@H](N)Cc1ccccc1)[C@@H](C)O)C(C)C)[C@@H](C)O)[C@@H](C)CC)[C@@H](C)CC)C(N)=O` [SEQ ID NO: 116, FTLSLDVPTNIMNLLFNIAKAKNLRAQAAANAHLMAQI-NH2], the EC50 was over 10 µM. As to `CC[C@H](C)[C@H](N)C(=O)N[C@H](C(=O)N[C@@H](CC(C)C)C(=O)N[C@@H](CO)C(=O)N[C@@H](CC(C)C)C(=O)N[C@@H](CC(=O)O)C(=O)N[C@H](C(=O)N1CCC[C@H]1C(=O)N[C@H](C(=O)NCC(=O)N[C@@H](CC(C)C)C(=O)N[C@@H](CC(C)C)C(=O)N[C@@H](CCC(N)=O)C(=O)N[C@H](C(=O)N[C@@H](CC(C)C)C(=O)N[C@@H](CC(C)C)C(=O)N[C@@H](CCC(=O)O)C(=O)N[C@@H](CCC(N)=O)C(=O)N[C@@H](C)C(=O)N[C@@H](CCCNC(=N)N)C(=O)N[C@@H](C)C(=O)N[C@@H](CCCNC(=N)N)C(=O)N[C@@H](C)C(=O)N[C@@H](C)C(=O)N[C@@H](CCCNC(=N)N)C(=O)N[C@@H](CCC(=O)O)C(=O)N[C@@H](CCC(N)=O)C(=O)N[C@@H](C)C(=O)N[C@H](C(=O)N[C@H](C(=O)N[C@@H](CC(N)=O)C(=O)N[C@@H](C)C(=O)N[C@@H](CCCNC(=N)N)C(=O)N[C@H](C(=O)N[C@@H](CC(C)C)C(=O)N[C@@H](C)C(=O)N[C@@H](CCCNC(=N)N)C(=O)N[C@H](C(N)=O)C(C)C)[C@@H](C)CC)[C@@H](C)O)[C@@H](C)O)[C@@H](C)CC)[C@@H](C)CC)C(C)C)C(C)C` [SEQ ID NO: 115, IVLSLDVPIGLLQILLEQARARAAREQATTNARILARV-NH2, reference compound], the EC50 was 0.955 µM. In addition, the “nH (Hill slope)” value (h-CRHR1) is 1.69.

The values above are taken from US20110105397A1, “METHOD FOR TREATING HEART FAILURE WITH STRESSCOPIN-LIKE PEPTIDES” (priority 2009, published 2011).
